Molecules are shown by their SMILES.

Chains of the proteins cited; added tags and fusions are not shown. Lines headed by an entry give the natural chain unless they say otherwise; changes in a name come on top.
UniProt P41145: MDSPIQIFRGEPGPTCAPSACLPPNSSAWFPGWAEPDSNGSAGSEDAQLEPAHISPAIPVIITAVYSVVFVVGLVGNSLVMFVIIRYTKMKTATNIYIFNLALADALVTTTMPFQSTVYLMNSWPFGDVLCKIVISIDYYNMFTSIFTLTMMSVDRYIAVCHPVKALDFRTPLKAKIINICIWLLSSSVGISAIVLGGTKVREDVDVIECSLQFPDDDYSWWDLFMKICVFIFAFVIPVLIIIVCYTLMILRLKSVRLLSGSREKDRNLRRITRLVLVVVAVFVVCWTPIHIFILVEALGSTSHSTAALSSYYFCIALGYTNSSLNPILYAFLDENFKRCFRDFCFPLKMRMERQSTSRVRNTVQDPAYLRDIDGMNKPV

In this assay the target is T1, κOR (Homo sapiens, UniProt P41145).
T1 construct: host or cells: CHO-K1
The assay is classed as cell-based.

Take `C/C=C1/CN2CC[C@]34C(=C(C(=O)OC)[C@H]1C[C@H]23)Nc1ccc(-c2ccccc2)cc14` [Compound 4, 10-Phenylakuammicine]: the “Selectivity index = μOR EC50/κOR EC50” value came to 52.
With `C/C=C1/CN2CC[C@]34C(=C(C(=O)OC)[C@H]1C[C@H]23)Nc1ccc(-c2ccsc2)cc14` [Compound 6, 10-(3-Thienyl)akuammicine] the figure was 110.
With `C/C=C1/CN2CC[C@]34C(=C(C(=O)OC)[C@H]1C[C@H]23)Nc1ccc(-c2ccoc2)cc14` [Compound 5, 10-(3-Furanyl)akuammicine] the figure was 820.
